This note sets out measurements from patent publication US7384629B2, “Biological control of nematodes with Hirsutella minnesotensis” (Regents of the University of Minnesota, priority 2000, dated 2008).

Some compounds may have been tested in ways that are not shown here.

The subject of this assay is Hirsutella rhossiliensis. Put plainly: Effect of nitrogen source on growth, sporulation and spore germination. Particulars: for Growth mm-in-diam, on agar: nitrogen source 0.3296 g/L nitrogen; for Growth mm-in-diam, on agar / Sporulation 10^3/cm^2, on agar / growth in liquit culture (visual rating): 5 weeks; for Spore germination %, on agar / Sporulation 10^3/cm^2, on agar / growth in liquit culture (visual rating): nitrogen source.

Turning to Ammonium nitrate, under “isolate ATCC46487”, the “Growth mm-in-diam, on agar” value was found to be 35.7 mm-in-diam; the “Spore germination %, on agar” value stood at 93.3%; the “Sporulation 10^3/cm^2, on agar” value is given as 10.3 10^3/cm^2. Further, under “isolate JA16-1”, the “Growth mm-in-diam, on agar” value came out at 11.0 mm-in-diam; the “Spore germination %, on agar” value was determined as 91.1%; the “Sporulation 10^3/cm^2, on agar” value is 2.3 10^3/cm^2; the “growth in liquit culture (visual rating)” value is reported as “III (III = hyphae growth or colonies form a pellet, less than 2.5 ml)”. Further, for the setting “isolate OWVT-1”, the “Growth mm-in-diam, on agar” value came out at 17.2 mm-in-diam; the “Spore germination %, on agar” value is 57.8%; the “Sporulation 10^3/cm^2, on agar” value is listed as 4.6 10^3/cm^2; the “growth in liquit culture (visual rating)” value is “III (III = hyphae growth or colonies form a pellet, less than 2.5 ml)”.
